Laboratory results as given in patent publication US10842797B2, “Nutraceutical co-crystal compositions” (UNIVERSITY OF SOUTH FLORIDA, priority 2007, dated 2020).

Experimental: Solubility profiles for co-crystals were determined by UV-vis spectroscopy (Perkin Elmer-Lambda 25 UV-vis spectrometer, 400 nm).
The solubility of KP10 in 1:1 ethanol/water (V/V %) was determined by UV-vis spectroscopy, with a wavelength of 360 nm.
The solubility of KP15 in 1:1 ethanol/water (V/V %) was determined by UV-vis spectroscopy, with a wavelength of 300 nm.

increase in the solubility of hesperetin in the co-crystal when compared to pure hesperetin: approximately 5 fold
Substance: Co-Crystal of Hesperetin and Nicotinic Acid [KP22]
